Source: PubChem BioAssay (NCI)
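Values below derive from 48-hour exposures of cells grown in 96-well plates, with endpoints linearly interpolated between the two concentrations bracketing the appropriate inhibition level. TGI denotes the concentration required for complete inhibition of growth.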

Experiments:
Test in all cases: DTP human tumour cell line panel, 48 h
A498 renal = test system: A498 renal
A549 NSCLC = test system: A549 NSCLC
ACHN renal = test system: ACHN renal
CAKI-1 renal = test system: CAKI-1 renal
COLO 205 colon = test system: COLO 205 colon
DLD-1 colon = test system: DLD-1 colon
DMS 114 small cell lung = test system: DMS 114 small cell lung
EKVX NSCLC = test system: EKVX NSCLC
HCC-2998 colon = test system: HCC-2998 colon
HCT-116 colon = test system: HCT-116 colon
HCT-15 colon = test system: HCT-15 colon
HOP-62 NSCLC = test system: HOP-62 NSCLC
HOP-92 NSCLC = test system: HOP-92 NSCLC
HT29 colon = test system: HT29 colon
IGROV1 ovarian = test system: IGROV1 ovarian
KM12 colon = test system: KM12 colon
KM20L2 colon = test system: KM20L2 colon
LOX IMVI melanoma = test system: LOX IMVI melanoma
M19-MEL melanoma = test system: M19-MEL melanoma
MOLT-4 leukemia = test system: MOLT-4 leukemia
NCI-H226 lung = test system: NCI-H226 lung
NCI-H23 lung = test system: NCI-H23 lung
NCI-H322M lung = test system: NCI-H322M lung
NCI-H460 lung = test system: NCI-H460 lung
OVCAR-4 ovarian = test system: OVCAR-4 ovarian
OVCAR-5 ovarian = test system: OVCAR-5 ovarian
OVCAR-8 ovarian = test system: OVCAR-8 ovarian
RPMI-8226 leukemia = test system: RPMI-8226 leukemia
RXF 393 renal = test system: RXF 393 renal
SF-268 CNS = test system: SF-268 CNS
SF-295 CNS = test system: SF-295 CNS
SF-539 CNS = test system: SF-539 CNS
SK-MEL-28 melanoma = test system: SK-MEL-28 melanoma
SK-MEL-5 melanoma = test system: SK-MEL-5 melanoma
SK-OV-3 ovarian = test system: SK-OV-3 ovarian
SN12C renal = test system: SN12C renal
SNB-19 CNS = test system: SNB-19 CNS
SNB-75 CNS = test system: SNB-75 CNS
SNB-78 CNS = test system: SNB-78 CNS
SR leukemia = test system: SR leukemia
SW-620 colon = test system: SW-620 colon
TK-10 renal = test system: TK-10 renal
U251 CNS = test system: U251 CNS
UACC-257 melanoma = test system: UACC-257 melanoma
UACC-62 melanoma = test system: UACC-62 melanoma
UO-31 renal = test system: UO-31 renal
XF 498 CNS = test system: XF 498 CNS

Measured: TGI

COc1ccc2c3c1O[C@@]1(C)[C@]4(OC)C=CC5(C[C@@H]4C(C)(C)O)C(C2)N(C)CC[C@@]351
> 100 µM: all assays above
